Our source for the IC50 values is publication PMC4833387, “OTSSP167 Abrogates Mitotic Checkpoint through Inhibiting Multiple Mitotic Kinases” (PLoS ONE, 2016).

Protein sequences, listed by entry. Tags and fused reporters are not part of them. Residues count along the entry.
UniProt Q14680, 1-340: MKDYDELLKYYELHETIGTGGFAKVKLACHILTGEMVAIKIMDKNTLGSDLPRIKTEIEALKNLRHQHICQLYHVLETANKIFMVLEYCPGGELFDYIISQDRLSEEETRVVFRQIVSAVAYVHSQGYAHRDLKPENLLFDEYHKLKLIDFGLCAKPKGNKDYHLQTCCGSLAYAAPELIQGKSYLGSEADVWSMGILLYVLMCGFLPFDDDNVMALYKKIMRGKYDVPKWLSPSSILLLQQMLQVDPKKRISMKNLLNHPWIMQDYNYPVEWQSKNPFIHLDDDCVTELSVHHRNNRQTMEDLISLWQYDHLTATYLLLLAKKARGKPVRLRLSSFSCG

pIC50: −log10 of the molar value.

Broadly, the pIC50 is the negative decadic logarithm of the IC50, by convention in mol/L.

The assay addresses T1, maternal embryonic leucine zipper kinase (MELK) (Homo sapiens, UniProt Q14680).
T1 construct: GST-MELK^(1–340)
In words: in vitro […] kinase assay with recombinant kinase from E. coli. Format: biochemical.

Take `CC(=O)c1cnc2ccc(-c3cc(Cl)c(O)c(Cl)c3)nc2c1N[C@H]1CC[C@H](CN(C)C)CC1` [OTSSP167]: the pIC50 is approximately 8.10.
